## Binding of CDR-mutated scFvs to a peptide of the spike HR2 region

Binding partner: SARS-CoV-2 spike HR2 peptide, sequence PDVDLGDISGINAS.

Parent scFv Ab-14: VH joined to VL by the linker GGGGSGGGGSGGGGS. Changes lie in the light chain CDRs alone.
VH: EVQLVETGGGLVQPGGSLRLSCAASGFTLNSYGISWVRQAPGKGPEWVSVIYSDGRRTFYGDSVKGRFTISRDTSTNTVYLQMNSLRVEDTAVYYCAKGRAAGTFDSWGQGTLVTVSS
VL: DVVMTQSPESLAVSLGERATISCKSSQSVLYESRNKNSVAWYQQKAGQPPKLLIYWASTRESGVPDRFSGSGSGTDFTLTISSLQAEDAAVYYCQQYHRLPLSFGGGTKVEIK

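Phage display of a naive human antibody library on the peptide gave the parent. Designed CDR sequences, proposed from the first random library and measured here. Group labels follow the data file (Ctrl: baseline library sampled from a position-specific scoring matrix, with some repeated check sequences; GP: Gaussian process model; Gen: genetic algorithm; a sequence that several methods proposed may carry one label only). In AlphaSeq, yeast of one mating type display the scFv and yeast of the other type display the target. The frequency of each diploid, read from paired DNA barcodes, reflects how well the two displayed proteins bind. Read counts were normalised to the haploid input and turned into Kd by a linear fit to BCL2-family pairs of known affinity, for each replicate. There are six technical replicates.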

The parent's light chain CDRs are KSSQSVLYESRNKNSVA, WASTRES, QQYHRLPLS; each variant's own CDRs replace them letter for letter. Values are log10 of the apparent Kd in nM; lower means stronger binding. Where no diploid with the target was found in that replicate, the entry reads "n.d.": below detection, most likely a poor binder, though not proof of it. The authors averaged sequences with at least three values out of six and counted those with two or fewer as poor binders. Values of this round are not directly comparable with the first-round values of the same sequences. Three control strains display no target. For all light chain designs, 4% of the pairings with them gave a signal, with a median of 2.64 and one signal in twenty below 1.59, so weak values seen in few replicates may be background. The control count says in how many pairings with the empty strains this scFv gave a signal, with their mean in brackets. Where one sequence has several entries in the source, the replicates are listed entry by entry, parted by semicolons.

| # | CDR-L1 | CDR-L2 | CDR-L3 | group | replicates, log10 nM | signal with controls |
|---|---|---|---|---|---|---|
| 1 | RSSQSVLYESRNKNSVA | WASTRED | QQYHRLPLS | Ctrl | 2.21 / 1.83 / 1.94 / 1.54 / 3.02 / 1.89 | 1/18 (2.89) |
| 2 | KSSSSVLPESEVKNSVA | WASTRES | QQYHRLPLS | Ctrl | 1.15 / 1.33 / 1.11 / 0.26 / 1.12 / 0.91 | 0/18 |
| 3 | KSSQSVAYNSRNKNNVA | WASTRES | QQYHRLPLS | Ctrl | 1.59 / 1.17 / 0.78 / 2.09 / 0.76 / 1.26 | 0/18 |
| 4 | KSSQSVLYESRNKNSVA | WASTRES | QQYHRLPLY | Ctrl | n.d. / n.d. / n.d. / n.d. / n.d. / n.d. | 1/18 (2.15) |
| 5 | KSSQSVLYNSENKNSVA | WASTRES | QQYMRLPLS | Ctrl | n.d. / 0.78 / 0.62 / 1.24 / 1.29 / 2.10 | 0/18 |
| 6 | KMSQSVLYESRNFNSVA | WASTRES | QQYHRLPLS | Ctrl | 1.29 / 1.25 / 1.22 / n.d. / n.d. / 1.15 | 0/18 |
| 7 | KSSTSVLDESRNKNSVA | WASTRVS | QQCHRLHLS | Ctrl | n.d. / n.d. / n.d. / n.d. / n.d. / n.d. | 0/18 |
| 8 | KISQSVLYEDRNKNSVA | EASTRES | DQYHRHPLS | Ctrl | 0.80 / -0.41 / 0.35 / -0.35 / 0.25 / 0.39 | 1/18 (1.85) |
| 9 | KSEQSVLYESRNKNSVA | WADTRES | QQYHHLPLS | Ctrl | 1.08 / n.d. / 0.95 / 1.78 / 1.44 / 2.60 | 0/18 |
| 10 | KISQSVLYESRNKNSVA | YASSRES | QQYHRLPLS | Ctrl | 0.91 / 0.79 / 0.51 / 0.77 / 0.28 / 0.80 | 2/18 (2.93) |
| 11 | KLSQSVLYESRNKNSVA | WASTRES | QQYHRLPFS | Ctrl | 0.32 / 0.01 / 0.25 / -0.04 / -0.17 / 0.68 | 0/18 |
| 12 | KISQSVWYESKNKNNVA | QASTRES | QQYHRLPLS | Ctrl | -0.06 / -0.02 / -0.23 / -0.22 / -0.09 / 0.20 | 0/18 |
| 13 | KLSQSVLYESSNKNSVA | FASTRES | QQYHGLPLS | Ctrl | 1.15 / 2.18 / n.d. / n.d. / 2.43 / n.d. | 0/18 |
| 14 | KSSQSVLYESRNKNSIA | WASTRIS | QQYKRLPLS | Ctrl | n.d. / n.d. / n.d. / 2.27 / n.d. / n.d. | 0/18 |
| 15 | KMSQSTLYESRNDNNVA | WASTLES | QTYHRLPLS | Ctrl | n.d. / n.d. / n.d. / n.d. / n.d. / n.d. | 3/18 (2.40) |
| 16 | KSSQSVGYESRNKNSVA | GASTRSS | QQYHRHPLS | Ctrl | n.d. / n.d. / n.d. / n.d. / 3.71 / n.d. | 2/18 (2.64) |
| 17 | KISQSVDYESRNKNSVA | WASTRES | QQYHRLPLS | Ctrl | 1.06 / n.d. / n.d. / 1.69 / 1.76 / 1.92 | 1/18 (2.20) |
| 18 | KSSDSYLYESRNKNSVA | AASTRES | QTYHELPLS | Ctrl | 1.18 / 1.80 / 2.09 / 1.55 / 1.34 / 1.69 | 0/18 |
| 19 | QSSQSVWYEARNKNSVA | WASTRES | QQYHRLPLS | Ctrl | 1.93 / n.d. / n.d. / 2.51 / 2.34 / 2.52 | 1/18 (2.01) |
| 20 | KSGQSVLYESSNKNSVA | WASTRES | QQIHRLPLS | Ctrl | n.d. / n.d. / n.d. / n.d. / n.d. / n.d. | 0/18 |
| 21 | KSSQSVLYESRNKNSVA | AGSTRES | QQYHRLPLS | Ctrl | 0.38 / 0.27 / 0.70 / 0.45 / -0.11 / 0.08 | 0/18 |
| 22 | KFSFSVQYESRNKNSVA | DASTREG | QQYHRMPLS | Ctrl | 0.18 / 0.19 / 0.09 / -0.02 / 0.16 / 0.11 | 1/18 (2.65) |
| 23 | KGSQSVLYESGNKNSVA | WASTRES | QQYHRLPLS | Ctrl | 1.66 / n.d. / 2.42 / 2.26 / n.d. / 2.45 | 0/18 |
| 24 | KYSQNVLYESRNKNSVA | WASTRES | QQYHRLPLS | Ctrl | 1.47 / 2.04 / 1.80 / 3.06 / 1.93 / 1.81 | 0/18 |
| 25 | KLSQSVLYESRNKNSVA | HASTRES | QQYHRLPLS | Ctrl+GP_Gen | -0.27 / 0.01 / -0.29 / -0.39 / -0.18 / 0.10; 0.82 / 0.43 / 0.31 / 0.42 / 0.25 / 0.49 | 3/36 (3.43) |
| 26 | KSSQSVLYESRNKNSVA | YASTRVS | QQYHRLPLS | Ctrl | 1.50 / 1.30 / 2.46 / 1.07 / 1.79 / 2.38 | 0/18 |
| 27 | KSSQVEDYESRNKNSVA | WASTRES | QQYHELPLS | Ctrl | n.d. / n.d. / n.d. / n.d. / n.d. / n.d. | 0/18 |
| 28 | KQSQPVLQESRNKNSVA | NASTRES | QQYHRLPLS | Ctrl | -0.01 / -0.14 / -0.11 / -0.20 / -0.32 / 0.04 | 1/18 (3.23) |
| 29 | KSSQSVLYESRNKQSVA | WASTRES | QQYHKLPLS | Ctrl | 1.86 / n.d. / n.d. / 2.05 / n.d. / n.d. | 2/18 (2.29) |
| 30 | KSSQSVLYHSRNKNSVA | DASTRNH | QQYHRLPLS | Ctrl | 1.79 / 0.92 / 1.62 / 1.11 / 1.70 / 1.38 | 0/18 |
| 31 | KSSQSWLYESRNKNSVA | WASTRES | QQYHMLPLS | Ctrl | 1.60 / 0.51 / 0.83 / 0.54 / 0.72 / 0.54 | 0/18 |
| 32 | KSSQSVLYESGNKNSVA | WASTRES | QQYHRLPLF | Ctrl | 0.68 / n.d. / n.d. / n.d. / n.d. / n.d. | 0/18 |
| 33 | KSSQSVLYESVNKNSVA | WASTRRS | QQYHRLPLS | Ctrl | n.d. / 2.26 / n.d. / 1.58 / n.d. / n.d. | 2/18 (2.21) |
| 34 | KSSQSVLYESRNKNSVA | DASTRVS | QQYHRLPLS | Ctrl | 0.74 / 0.78 / 0.77 / 0.81 / 0.79 / 0.81 | 3/18 (3.67) |
| 35 | KLSWSVLYEVRNKNSVA | DASTRES | QQYHILPLS | Ctrl | 0.25 / 0.46 / 0.34 / 0.09 / 0.08 / 0.56 | 1/18 (3.73) |
| 36 | KNSQSVLYESRFMNSVA | DASTRES | QQYHRLPLS | Ctrl | 0.27 / 0.18 / 0.32 / 0.25 / 0.33 / 0.66 | 0/18 |
| 37 | SSSQSVLDESTNKNSVA | WAVTRES | QQYHRLPLS | Ctrl | 1.47 / 1.60 / 2.82 / 1.07 / 1.13 / 2.33 | 1/18 (3.44) |

Extract of 6 entries:

| CDR-L1 | CDR-L2 | CDR-L3 | group | replicates, log10 nM | signal with controls |
|---|---|---|---|---|---|
| KSSQSVLYESRNKNSVA | AGSTRES | QQYHRLPLS | Ctrl | 0.38 / 0.27 / 0.70 / 0.45 / -0.11 / 0.08 | 0/18 |
| KSSQSVLYESRNKNSVA | YASTRVS | QQYHRLPLS | Ctrl | 1.50 / 1.30 / 2.46 / 1.07 / 1.79 / 2.38 | 0/18 |
| SSSQSVLDESTNKNSVA | WAVTRES | QQYHRLPLS | Ctrl | 1.47 / 1.60 / 2.82 / 1.07 / 1.13 / 2.33 | 1/18 (3.44) |
| KGSQSVLYESGNKNSVA | WASTRES | QQYHRLPLS | Ctrl | 1.66 / n.d. / 2.42 / 2.26 / n.d. / 2.45 | 0/18 |
| KNSQSVLYESRFMNSVA | DASTRES | QQYHRLPLS | Ctrl | 0.27 / 0.18 / 0.32 / 0.25 / 0.33 / 0.66 | 0/18 |
| KSSQSVLYESRNKQSVA | WASTRES | QQYHKLPLS | Ctrl | 1.86 / n.d. / n.d. / 2.05 / n.d. / n.d. | 2/18 (2.29) |

The measurements come from Li et al. 2023 (doi:10.1038/s41467-023-39022-2) through the FLAb antibody collection.